# Results taken from patent US20250304717A1, “CAMPTOTHECIN DERIVATIVE AND LIGAND-DRUG CONJUGATE” (HAINAN SIMCERE ZAIMING PHARMACEUTICAL CO., LTD., priority 2022, published 2025).
# Where two headings read alike, the source gives them in different places.
# What was measured:
# [1] = 37° C., 100 μg/mL
# Protocol: ADC molecules (final concentration: 100 μg/mL) were separately incubated with human plasma (Oribiotech, PB021-C) and monkey plasma (Shinuoda Bio, SND-X0107) in an incubator at 37° C. The day of incubation was defined as day 0. Samples were taken on days 7, 14 and 28 and tested for the free small molecule.
# 300 μL of an internal standard working solution (acetonitrile preparation) was added to 20 μL of the sample, and the mixture was vortexed for mixing for 5 min and centrifuged for 5 min (14000 rpm). 4 μL of the supernatant was analyzed by LC-MS/MS (API 6500+).
# [2] = system: PA-1 cells; test: Anti-tumor cell proliferation activity of anti-CDH6-ADC, PA-1; type: cell-based, human; conditions: 5 days
# From the text: (§1) Cell and material: The human ovarian cancer cell line OVCAR3 (CDH6 high-expression cell strain) was purchased from ATCC, the human ovarian teratoma cell line PA-1 was purchased from ATCC, bovine serum, 1640 medium (Gibco #A10491-01), MEM medium (Gibco #11095-080), MEM NEAA (Gibco #11140-050), sodium pyruvate (Gibco #11360-070), penicillin-streptomycin, and 0.25% Trypsin-EDTA (Gibco #25200-056) were purchased from Gibco, bovine insulin was purchased from Solarbio, 96 well plates were purchased from Corning (U.S.), and Cell-Titer Glo reagent was purchased from Promega (U.S.). […]
# (§2) Cell proliferation activity test: The Cell-Titer Glo reagent was used to test ADC for inhibitory activity on proliferation of both OVCAR3 and PA-1 cell strains. […] After the ADC solution to be detected was added (the ADC was diluted with the medium for the corresponding cells described above, the ADC concentration was adjusted to 100 nM, then the medium was continuously and serially diluted 3-fold to give a total of 8 concentrations, and 10 μL of the prepared ADC solution was transferred to the 96-well plate so that the final concentration was 0-10 nM), the mixture was incubated at 37° C. with 5% CO2. […] The Cell-Titer Glo reagent was added and the cell activity was measured. […]
# (§3) Data analysis: % Inhibition was calculated, and compound IC50 was fitted. […]
# [3] = system: OVCAR3 subcutaneous tumor model; test: Efficacy in OVCAR3 subcutaneous tumor model-1; type: in vivo, Balb/c nude mice
# From the text: Experimental reagent: Human ovarian cancer OVCAR3 cells were purchased from ATCC, RPMI-1640 medium was purchased from Gibco (Cat. No. A104910), fetal bovine serum was purchased from Excell (Cat. No. FND500), penicillin-streptomycin was purchased from Gibco (Cat. No. 15140122), bovine insulin was purchased from Yeasen (Cat. No. 40107ES60), 0.25% trypsin-EDTA was purchased from Gibco (Cat. No. 25200-072), D-PBS (phosphate-buffered saline without calcium and magnesium ions) was purchased from Hyclone (Cat. No. SH30256.01), and Matrigel was purchased from Corning (Cat. No. 356237).
# Animal information: Balb/c nude mice, female, 5-6 weeks, weight about 14-20 g, purchased from Beijing Vital River Biotechnology Co., Ltd. The mice were bred in SPF-rated environment with air exhaust for each cage individually. All animals had free access to standard certified commercial laboratory diets and water.
# Cell culture: The human ovarian cancer OVCAR3 cell strain was cultured in vitro under the conditions of RPMI-1640 added with 20% fetal bovine serum, 1% penicillin-streptomycin, and […] bovine insulin, and an incubator at 37° C. with 5% CO2. The cells were digested with a 0.25% trypsin-EDTA digestive solution once a week for passaging as per conventional practice. When the cell saturation was 80%-90% and a required amount was achieved, the cells were collected and counted.
# Cell inoculation: 0.1 mL of OVCAR3 cell suspension (containing 1×10^7 cells, RPMI-1640: Matrigel, volume ratio 1:1) was inoculated subcutaneously into the axilla of each mouse. On day 26 after inoculation of the cells, the mice were randomly grouped and administrated based on tumor volume.
# The day when random grouping was performed was day 0.
# Tumor diameters were measured twice weekly using a vernier caliper. The tumor volume was calculated using the following formula: V=0.5a×b^2, where a and b represent the long diameter and short diameter of the tumor, respectively. Mouse body weight was measured twice weekly.
# [4] = system: OVCAR3 cells; test: Anti-tumor cell proliferation activity of anti-CDH6-ADC, OVCAR3; type: cell-based, human; conditions: 5 days
# From the text: as §1, §2, §3
# [5] = Table 24, Day 27, 3 mg/kg, single intravenous injection
Molecule,"Free small molecule % ([1]; Human plasma, incubation 7 days)","Free small molecule % ([1]; Human plasma, incubation 14 days)","Free small molecule % ([1]; Human plasma, incubation 28 days)","Free small molecule % ([1]; Monkey plasma, incubation 7 days)","Free small molecule % ([1]; Monkey plasma, incubation 14 days)","Free small molecule % ([1]; Monkey plasma, incubation 28 days)",IC50 [2],"Mean tumor volume (mm^3) Day 0 ([3]; Table 24, Day 0, 3 mg/kg, single intravenous injection)","Mean tumor volume (mm^3) Day 5 ([3]; Table 24, Day 5, 3 mg/kg, single intravenous injection)","Mean tumor volume (mm^3) Day 8 ([3]; Table 24, Day 8, 3 mg/kg, single intravenous injection)","Mean tumor volume (mm^3) Day 12 ([3]; Table 24, Day 12, 3 mg/kg, single intravenous injection)","Mean tumor volume (mm^3) Day 16 ([3]; Table 24, Day 16, 3 mg/kg, single intravenous injection)","Mean tumor volume (mm^3) Day 19 ([3]; Table 24, Day 19, 3 mg/kg, single intravenous injection)","Mean tumor volume (mm^3) Day 22 ([3]; Table 24, Day 22, 3 mg/kg, single intravenous injection)","Mean tumor volume (mm^3) Day 27 [3, 5]","TG (%) Day 27 [3, 5]","inhibitory effect on tumor growth (in words) ([3]; single intravenous administration at 3 mg/kg, P<0.0001)",IC50 [4]
ADC-L1-19-P1-5 (conjugate) heavy: EVQLVQSGAEVKKPGASVKVSCKASGYTFTDNYINWVRQAPGQRLEWMGWIYPGTGNSYYNEKFKGRVTITVDTSASTAYMELSSLRSEDTAVYLCASSYGDSFDYWGQGTTVTVSSASTKGPSVFPLAPSSKSTSGGTAALGCLVKDYFPEPVTVSWNSGALTSGVHTFPAVLQSSGLYSLSSVVTVPSSSLGTQTYICNVNHKPSNTKVDKKV[human IgG1 Fc omitted] light: DIVMTQSPDSLAVSLGERATINCRASQDIRNYLNWYQQKPGQTPKLLISYTSRLHSGVPDRFSGSGSGTDFTLTISSLQAEDVAVYYCQQYSQLPWTFGGGTKVEIKRTVAAPSVFIFPPSDEQLKSGTASVVCLLNNFYPREAKVQWKVDNALQSGNSQESVTEQDSKDSTYSLSSTLTLSKADYEKHKVYACEVTHQGLSSPVTKSFNRGEC,0.32%,0.54%,0.99%,0.34%,0.75%,1.53%,18 pM,153.4 mm^3,165.0 mm^3,149.3 mm^3,97.3 mm^3,68.7 mm^3,56.6 mm^3,49.4 mm^3,27.3 mm^3,135.5%,significant inhibitory effect on tumor growth,19 pM
ADC-L1-19-5 (conjugate) heavy: EVQLVQSGAEVKKPGASVKVSCKASGYTFTDNYINWVRQAPGQRLEWMGWIYPGTGNSYYNEKFKGRVTITVDTSASTAYMELSSLRSEDTAVYLCASSYGDSFDYWGQGTTVTVSSASTKGPSVFPLAPSSKSTSGGTAALGCLVKDYFPEPVTVSWNSGALTSGVHTFPAVLQSSGLYSLSSVVTVPSSSLGTQTYICNVNHKPSNTKVDKKV[human IgG1 Fc omitted] light: DIVMTQSPDSLAVSLGERATINCRASQDIRNYLNWYQQKPGQTPKLLISYTSRLHSGVPDRFSGSGSGTDFTLTISSLQAEDVAVYYCQQYSQLPWTFGGGTKVEIKRTVAAPSVFIFPPSDEQLKSGTASVVCLLNNFYPREAKVQWKVDNALQSGNSQESVTEQDSKDSTYSLSSTLTLSKADYEKHKVYACEVTHQGLSSPVTKSFNRGEC,–,–,–,–,–,–,17 pM,–,–,–,–,–,–,–,–,–,–,21 pM
